Source: PubChem BioAssay (Broad Institute)
S100A4 MyoIIA: S100A4-myosin IIA interaction inhibition. AID 652163. inhibition, % at 10.7 µM. S100A4/TAMRA-MyoIIA peptide fluorescence polarization. 360,000 compounds, 0.14% hits. P26447;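 active = mean inhibition of at least 70% across replicates, with every replicate also reaching that level; inconclusive = mean inhibition reaches 70% but some replicates fall short; inactive = mean inhibition below 70%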
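Material: human S100A4 monomer with TAMRA-labelled myosin IIA peptide; buffer or medium: HEPES pH 7.2 with CaCl2, KCl, NaCl, DTT, Triton; compound dosing: one concentration per compound; schedule: 5 min incubation before reading; benchmarks: neutral control DMSO, positive control TFP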
UUG fidelity: modulators of start codon recognition fidelity in yeast; AID 602363; activity score, % at 18.7 µM; S. cerevisiae UUG-firefly luciferase reporter, luminescence/redox ratio; actives 0.13% (n = 350,000);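 active = replicate mean at a twofold rise or more, about +100% in these data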;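 note: firefly luciferase made from a UUG start codon reports start codon fidelity; reporter light over untreated wells divided by growth signal over untreated wells; some hits fall short of that in this replicate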
SIRT5 inh: sirtuin-5 (human) deacylase inhibition | Purified SirT5, succinyl-peptide AMC, trypsin-coupled fluorescence | inhibition, % at 15 µM | 330,000 compounds, 1.1% hits | AID 652115; in the data active = inhibition above about 15%; inconclusive = no clear call, values can overlap the other calls
PDI turbidity: PDI (human) enzyme inhibition; P07237; PDI insulin aggregation turbidity, A650, 90 min; inhibition, % at 10 µM; 350,000 compounds, 0.052% hits; AID 588391;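 active = mean inhibition across replicates of 30% or more, whatever share of single replicates reach that level; inconclusive = mean inhibition below 30% while every single replicate reaches 30%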
ERp5 block: inhibitors of human ERp5; Q15084; ERp5 insulin aggregation, absorbance 650 nm, 90 min; inhibition, % at 9.99 µM; 350,000 compounds, 0.05% hits; AID 651711;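 active = mean replicate inhibition above about 25%, with every replicate also reaching it, limit read from the data, passing the limit was not always enough; inconclusive = only one of those two criteria met; inactive = neither criterion met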
FGF22 binding: binders of recombinant human FGF22 by thermal shift. activity (Tm shift, normalised), % at 9.99 µM. SYPRO orange fluorescence; percent of sucrose octasulfate shift, DMSO zero. Q9HCT0. 340,000 compounds, 1.5% hits;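 active = mean Tm shift, scaled 0 neutral to 100 positive control, at about 1.3% or above, every replicate too, limit read from the data; inconclusive = no clear call, values can overlap the other calls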
The depositor's hits bear a star; ? = inconclusive; / = no result; ! = a repeat was not active. Only some compounds are listed: those with a hit (about 2.2% of all), similar ones and a draw of the others.

#1 CCCCN(CCCC)S(=O)(=O)c1c(C)[nH]c(=O)[nH]c1=O
#2 CCC(C)C(=O)Nc1nnc(SCC(=O)Nc2ccccc2F)s1 (stereo unspecified)
#3 CCC(C)C(=O)Nc1nnc(SCC(=O)Nc2ccc(F)cc2)s1 (stereo unspecified)
#4 CCN1C[C@@H]2[C@@H]3C(=O)N(Cc4ccccc4)C(=O)[C@@H]3[C@](Cc3ccccc3)(C1=O)N2C(=O)c1ccc(C)cc1
#5 COc1cc(CC(NC(C)=O)C(=O)NC2CCN(C(=O)Nc3ccccc3C)CC2)cc(OC)c1 (stereo unspecified)
#6 COc1cc(C(=O)N2CCC(NC(=O)C(Cc3ccc(C)cc3)NC(C)=O)CC2)cc(OC)c1OC (stereo unspecified)
assay / entry	1	2	3	4	5	6
S100A4 MyoIIA	-2	-6	1	-3	6	3
UUG fidelity	/	/	/	16	-8	/
SIRT5 inh	22*	-2	1	17*	17*	0
PDI turbidity	4	1	0	-4	-4	12
ERp5 block	9	1	6	0	5	2
FGF22 binding	0	44*	0	0	0	0

3 entries from above, ordered by count of non-hydrogen atoms, rising:
#3 CCC(C)C(=O)Nc1nnc(SCC(=O)Nc2ccc(F)cc2)s1 (stereo unspecified)
#5 COc1cc(CC(NC(C)=O)C(=O)NC2CCN(C(=O)Nc3ccccc3C)CC2)cc(OC)c1 (stereo unspecified)
#4 CCN1C[C@@H]2[C@@H]3C(=O)N(Cc4ccccc4)C(=O)[C@@H]3[C@](Cc3ccccc3)(C1=O)N2C(=O)c1ccc(C)cc1
assay / entry	3	5	4
S100A4 MyoIIA	1	6	-3
UUG fidelity	/	-8	16
SIRT5 inh	1	17*	17*
PDI turbidity	0	-4	-4
ERp5 block	6	5	0
FGF22 binding	0	0	0

Additional entries:
#7 COc1cc(CC(NC(C)=O)C(=O)NC2CCN(C(=O)c3cc(OC)c(OC)c(OC)c3)CC2)cc(OC)c1 (stereo unspecified)
#8 CCC(=O)N[C@H]1C=C[C@H](CC(=O)NCC2CC2)O[C@H]1CO
#9 Cc1ccc(NC(=S)/N=C(\N)Nc2nc(C)c3cc(C)c(C)cc3n2)cc1C
#10 CCS(=O)(=O)N1CCN(c2ccc([N+](=O)[O-])c(NCc3ccccc3)c2)CC1
#11 Cc1ccc(S(=O)(=O)N(C)c2ccc3ccccc3c2)cc1
#12 Cc1ccc(S(=O)(=O)N=Nc2c(O)[nH]c3ccccc23)cc1
assay / entry	7	8	9	10	11	12
S100A4 MyoIIA	-1	18	-10	/	1	/
UUG fidelity	17	/	-25	240*	-8	-10
SIRT5 inh	-7	-5	-2	/	-1	/
PDI turbidity	-6	/	10	-4	-1	2
ERp5 block	1	-2	?	/	4	/
FGF22 binding	43*	/	43*	/	44*	/

#13 Cc1ccc(C)c(S(=O)(=O)N=Nc2c(O)[nH]c3ccccc23)c1
#14 Cc1ccc(-c2nnc(SCC(N)=O)n2C)cc1
#15 COc1ccc2c3c([nH]c2c1)[C@@H](CO)N(C(=O)c1ccccc1)CC31CCN(C)CC1
#16 CC(C)CCNC(=O)c1ccc2c(c1)ncn2C1CCCC1
#17 CCCCNC(=NCc1cccc(C(F)(F)F)c1)Nc1ccccc1
#18 C[C@@H]1CN([C@H](C)CO)C(=O)c2cc(/C=C/c3ccccc3)cnc2O[C@H]1CN(C)S(=O)(=O)c1ccc(F)cc1
assay / entry	13	14	15	16	17	18
S100A4 MyoIIA	-1	3	4	2	-4	0
UUG fidelity	/	-9	/	/	-8	-10
SIRT5 inh	-1	-2	4	-2	20*	5
PDI turbidity	0	2	/	-2	16	/
ERp5 block	2	-3	1	-2	1	-5
FGF22 binding	43*	43*	0	45*	0	0

#19 C[C@H](CO)N1C[C@H](C)[C@H](CN(C)S(=O)(=O)c2ccc(C#N)cc2)Oc2ncc(C#Cc3ccc(C(F)(F)F)cc3)cc2C1=O
#20 C[C@H](CO)N1C[C@H](C)[C@H](CN(C)S(C)(=O)=O)Oc2ncc(C#Cc3ccc(C(F)(F)F)cc3)cc2C1=O
#21 C[C@@H]1CN([C@@H](C)CO)C(=O)c2cc(/C=C/c3ccccc3)cnc2O[C@@H]1CN(C)S(=O)(=O)c1ccc(F)cc1
#22 C[C@H](CO)N1C[C@H](C)[C@H](CN(C)S(=O)(=O)c2ccc(C#N)cc2)Oc2ncc(C#Cc3ccccc3)cc2C1=O
#23 Cc1ccc(S(=O)(=O)N(C)C[C@@H]2Oc3ncc(C#Cc4ccccc4)cc3C(=O)N([C@H](C)CO)C[C@@H]2C)cc1
#24 COc1ccc(S(=O)(=O)N(C)C[C@@H]2Oc3ncc(C#CCN(C)C)cc3C(=O)N([C@H](C)CO)C[C@@H]2C)cc1
assay / entry	19	20	21	22	23	24
S100A4 MyoIIA	-6	5	-2	-11	6	-3
UUG fidelity	/	-5	-17	-3	-5	11
SIRT5 inh	27*	1	32*!	4	16*	21*
PDI turbidity	/	/	14	/	/	/
ERp5 block	6	-3	-1	-3	0	-2
FGF22 binding	/	-1	0	0	0	0

#25 CCCC#Cc1cnc2c(c1)C(=O)N([C@@H](C)CO)C[C@@H](C)[C@H](CN(C)S(C)(=O)=O)O2
#26 CC(C)CC#Cc1cnc2c(c1)C(=O)N([C@H](C)CO)C[C@@H](C)[C@H](CN(C)S(C)(=O)=O)O2
#27 COc1cccc(NC(=O)CSc2ncc(S(=O)(=O)c3ccccc3)c(=O)[nH]2)c1
#28 CSc1ncc(S(=O)(=O)c2ccccc2)c(=O)[nH]1
#29 Cc1ccc(NC(=O)CSc2ncc(S(=O)(=O)c3ccccc3)c(=O)[nH]2)cc1C
#30 Cc1noc(C)c1NC(=O)NCC[C@H]1CC[C@@H](NC(=O)c2ccc(F)cc2)[C@H](CO)O1
assay / entry	25	26	27	28	29	30
S100A4 MyoIIA	0	95*	0	-3	/	-4
UUG fidelity	3	38	-10	/	-12	/
SIRT5 inh	0	2	2	20*	/	-2
PDI turbidity	/	/	-1	10	-5	/
ERp5 block	-1	6	-3	3	/	-10
FGF22 binding	0	-1	1.8*	0	/	0

#31 CCn1c(-c2cccs2)nc2ccccc21
#32 C#CCn1c(-c2cccs2)nc2ccccc21
#33 COc1cccc(CN(C)CCCn2cnc3c(SC)ncnc32)c1
#34 COc1ccc(CN(C)CCCn2cnc3c(OCc4ccccc4)ncnc32)cc1
#35 COCCNC(=O)[C@@H]1[C@@H](CO)[C@@H]2Cn3c(ccc(C4=CCCCC4)c3=O)[C@H]1N2C(=O)C1CCC1
#36 C[C@H](CO)N1C[C@H](C)[C@H](CN(C)C(=O)NC2CCCCC2)Oc2cc(C#Cc3ccc(F)cc3)ccc2S1(=O)=O
assay / entry	31	32	33	34	35	36
S100A4 MyoIIA	/	-4	-2	-1	-37	14
UUG fidelity	-19	-7	-16	-5	/	-4
SIRT5 inh	/	-15	15*	-1	-14	14
PDI turbidity	3	-3	2	-8	/	/
ERp5 block	/	9	5	-2	3	5
FGF22 binding	/	43*	0	0	0	0

#37 CC(C)CC#Cc1ccc2c(c1)O[C@@H](CN(C)C(=O)NC1CCCC1)[C@H](C)CN([C@@H](C)CO)S2(=O)=O
#38 CC(C)CC#Cc1ccc2c(c1)O[C@@H](CN(C)C(=O)NC1CCCC1)[C@H](C)CN([C@H](C)CO)S2(=O)=O
#39 C[C@@H]1CN([C@H](C)CO)S(=O)(=O)c2ccc(C#Cc3ccc(F)cc3)cc2O[C@H]1CN(C)C(=O)NC1CCCCC1
#40 COc1ccc2c3c(n(C)c2c1)[C@@H](CO)N(C(=O)Nc1ccc(F)cc1)CC31CN(C(=O)c2ccccc2F)C1
#41 C[C@H](CO)N1C[C@H](C)[C@@H](CN(C)Cc2ccncc2)OCCCC[C@H](C)Oc2ccc(N(C)C)cc2C1=O
#42 Cc1ccc(C(=O)N2CCN(Cc3ccc4c(c3)OCO4)CC2)cc1S(=O)(=O)N1CCOCC1
assay / entry	37	38	39	40	41	42
S100A4 MyoIIA	-3	-21	7	-3	1	0
UUG fidelity	0	8	-1	/	2	/
SIRT5 inh	16*	25*	18*	8	0	16*
PDI turbidity	/	/	/	/	/	-4
ERp5 block	3	8	-8	6	7	1
FGF22 binding	0	0	0	0	0	0
